Earlier results as cited in patent US20130225483A1, “New Treatments of Hepatitis C Virus Infection” (priority 2010, published 2013).

Details: in vivo; cited from earlier work

Peg-IFNα2a: pegylated form of interferon alfa 2a with 40 kDa branched PEG, commercially available from Roche
sustained serum concentrations, duration: 168 h
